By UniProt entry, the sequences of proteins in these tests, tags left out.
UniProt P97266, whole entry, looked up: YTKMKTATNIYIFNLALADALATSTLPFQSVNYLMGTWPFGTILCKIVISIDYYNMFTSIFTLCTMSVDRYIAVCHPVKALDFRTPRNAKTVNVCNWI

In ChEMBL document CHEMBL1131860:

Target: Mu-type opioid receptor (Cavia porcellus, UniProt P97266)
Test: Binding affinity against Mu opioid receptor using [35S]GTP-gamma-S, binding assay in guinea pig caudate membranes in unblocked condition

CN(C(=O)Cc1ccccc1)[C@H]1CC[C@@]2(CCCO2)C[C@@H]1N1CCCC1
Kd: 684 nM
